Data as given in patent US12698507B2, “Methods and compositions for conferring and/or enhancing herbicide tolerance using protoporphyrinogen IX oxidase of various cyanobacteria or variant thereof” (FarmHannong Co., Ltd., priority 2019, dated 2026).

By UniProt entry, the sequences of proteins in these tests, tags left out.
UniProt A0A7D6JSC1, entry or part of it V305M: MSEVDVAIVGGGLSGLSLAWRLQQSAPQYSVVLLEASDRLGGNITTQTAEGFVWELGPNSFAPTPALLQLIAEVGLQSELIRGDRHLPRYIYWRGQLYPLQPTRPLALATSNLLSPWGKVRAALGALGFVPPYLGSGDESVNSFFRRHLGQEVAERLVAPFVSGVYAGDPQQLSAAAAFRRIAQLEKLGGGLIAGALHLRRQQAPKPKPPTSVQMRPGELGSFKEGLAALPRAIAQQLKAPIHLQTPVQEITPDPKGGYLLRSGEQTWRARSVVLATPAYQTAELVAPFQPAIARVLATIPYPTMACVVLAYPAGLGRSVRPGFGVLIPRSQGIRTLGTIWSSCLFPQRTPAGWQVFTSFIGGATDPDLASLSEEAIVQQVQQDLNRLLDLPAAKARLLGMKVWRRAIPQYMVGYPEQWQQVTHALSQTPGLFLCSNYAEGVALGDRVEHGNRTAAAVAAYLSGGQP
UniProt A0A7D6JSC1, entry or part of it A167C: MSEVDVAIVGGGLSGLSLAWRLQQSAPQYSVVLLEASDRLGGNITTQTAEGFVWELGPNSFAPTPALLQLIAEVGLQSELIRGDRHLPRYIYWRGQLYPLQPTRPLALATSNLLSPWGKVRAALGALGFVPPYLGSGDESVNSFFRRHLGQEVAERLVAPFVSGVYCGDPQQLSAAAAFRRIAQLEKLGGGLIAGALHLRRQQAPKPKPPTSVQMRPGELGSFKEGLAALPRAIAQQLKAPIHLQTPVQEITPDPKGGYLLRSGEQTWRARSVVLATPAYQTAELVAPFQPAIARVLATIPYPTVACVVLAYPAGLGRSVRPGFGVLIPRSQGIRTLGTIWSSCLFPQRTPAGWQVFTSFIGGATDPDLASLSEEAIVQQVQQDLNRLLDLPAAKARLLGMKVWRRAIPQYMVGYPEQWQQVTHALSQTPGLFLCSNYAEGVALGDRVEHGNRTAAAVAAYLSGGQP
UniProt A0A7D6JSC1, entry or part of it A167I: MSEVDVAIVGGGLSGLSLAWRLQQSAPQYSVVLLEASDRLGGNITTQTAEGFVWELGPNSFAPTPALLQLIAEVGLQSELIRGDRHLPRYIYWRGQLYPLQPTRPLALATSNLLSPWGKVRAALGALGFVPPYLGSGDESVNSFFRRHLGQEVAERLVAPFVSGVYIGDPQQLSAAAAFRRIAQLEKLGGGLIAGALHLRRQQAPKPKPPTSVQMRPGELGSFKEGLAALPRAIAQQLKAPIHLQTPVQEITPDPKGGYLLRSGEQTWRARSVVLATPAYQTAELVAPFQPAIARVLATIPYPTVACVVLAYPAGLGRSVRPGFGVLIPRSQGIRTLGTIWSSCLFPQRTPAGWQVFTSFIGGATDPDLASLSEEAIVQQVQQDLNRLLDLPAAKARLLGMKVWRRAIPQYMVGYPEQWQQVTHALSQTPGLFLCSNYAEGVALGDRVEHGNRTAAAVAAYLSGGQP
UniProt A0A7D6JSC1, entry or part of it V165C: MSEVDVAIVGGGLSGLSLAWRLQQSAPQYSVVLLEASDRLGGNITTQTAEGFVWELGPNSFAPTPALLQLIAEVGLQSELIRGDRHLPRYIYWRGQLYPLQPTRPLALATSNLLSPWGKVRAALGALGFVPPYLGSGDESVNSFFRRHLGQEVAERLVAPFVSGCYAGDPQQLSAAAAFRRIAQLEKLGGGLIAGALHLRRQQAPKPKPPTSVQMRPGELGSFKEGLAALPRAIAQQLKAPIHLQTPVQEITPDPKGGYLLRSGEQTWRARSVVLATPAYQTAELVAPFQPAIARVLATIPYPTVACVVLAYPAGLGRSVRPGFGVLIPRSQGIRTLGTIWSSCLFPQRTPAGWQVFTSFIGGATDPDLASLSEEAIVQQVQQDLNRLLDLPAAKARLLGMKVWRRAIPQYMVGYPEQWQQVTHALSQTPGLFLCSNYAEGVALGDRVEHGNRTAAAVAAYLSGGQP
UniProt A0A7D6JSC1, entry or part of it V305L: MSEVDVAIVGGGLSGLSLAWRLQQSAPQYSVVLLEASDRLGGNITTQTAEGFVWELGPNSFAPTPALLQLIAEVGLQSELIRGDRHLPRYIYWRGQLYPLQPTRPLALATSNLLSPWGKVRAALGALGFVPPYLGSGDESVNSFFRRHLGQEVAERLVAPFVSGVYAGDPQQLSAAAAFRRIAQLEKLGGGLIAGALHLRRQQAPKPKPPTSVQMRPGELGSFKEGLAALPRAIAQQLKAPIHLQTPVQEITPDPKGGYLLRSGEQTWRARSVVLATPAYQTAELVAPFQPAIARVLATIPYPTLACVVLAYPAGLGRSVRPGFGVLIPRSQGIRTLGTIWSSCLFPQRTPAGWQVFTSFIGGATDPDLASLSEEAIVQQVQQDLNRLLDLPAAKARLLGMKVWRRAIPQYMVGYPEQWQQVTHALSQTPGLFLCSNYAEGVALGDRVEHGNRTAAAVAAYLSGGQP
UniProt A0A7D6JSC1, entry or part of it A167L: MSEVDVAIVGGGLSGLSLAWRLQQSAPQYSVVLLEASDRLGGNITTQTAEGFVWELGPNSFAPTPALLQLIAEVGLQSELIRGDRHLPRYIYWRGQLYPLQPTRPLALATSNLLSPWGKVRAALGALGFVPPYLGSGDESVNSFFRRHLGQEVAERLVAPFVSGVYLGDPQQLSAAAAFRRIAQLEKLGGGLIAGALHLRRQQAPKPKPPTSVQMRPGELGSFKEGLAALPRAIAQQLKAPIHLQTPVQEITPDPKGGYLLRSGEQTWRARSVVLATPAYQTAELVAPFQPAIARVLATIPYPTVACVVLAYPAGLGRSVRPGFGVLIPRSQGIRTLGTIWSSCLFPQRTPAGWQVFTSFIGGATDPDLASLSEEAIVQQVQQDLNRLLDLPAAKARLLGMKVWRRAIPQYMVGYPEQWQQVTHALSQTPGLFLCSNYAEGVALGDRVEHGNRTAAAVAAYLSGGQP
UniProt A0A7D6JSC1, entry or part of it R89A: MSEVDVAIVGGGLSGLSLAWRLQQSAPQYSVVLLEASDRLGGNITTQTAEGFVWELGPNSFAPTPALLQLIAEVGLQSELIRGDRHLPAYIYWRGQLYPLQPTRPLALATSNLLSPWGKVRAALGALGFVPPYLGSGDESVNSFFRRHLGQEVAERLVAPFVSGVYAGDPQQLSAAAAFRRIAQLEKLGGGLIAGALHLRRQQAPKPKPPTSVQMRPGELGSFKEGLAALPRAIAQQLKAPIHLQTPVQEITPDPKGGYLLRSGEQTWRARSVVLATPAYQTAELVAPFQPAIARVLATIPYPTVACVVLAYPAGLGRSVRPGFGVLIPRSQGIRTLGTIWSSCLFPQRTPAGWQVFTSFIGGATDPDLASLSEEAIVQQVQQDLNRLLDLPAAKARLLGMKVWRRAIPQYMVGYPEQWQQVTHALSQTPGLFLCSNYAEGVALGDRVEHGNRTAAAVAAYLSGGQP
UniProt A0A7D6JSC1, entry or part of it V165S: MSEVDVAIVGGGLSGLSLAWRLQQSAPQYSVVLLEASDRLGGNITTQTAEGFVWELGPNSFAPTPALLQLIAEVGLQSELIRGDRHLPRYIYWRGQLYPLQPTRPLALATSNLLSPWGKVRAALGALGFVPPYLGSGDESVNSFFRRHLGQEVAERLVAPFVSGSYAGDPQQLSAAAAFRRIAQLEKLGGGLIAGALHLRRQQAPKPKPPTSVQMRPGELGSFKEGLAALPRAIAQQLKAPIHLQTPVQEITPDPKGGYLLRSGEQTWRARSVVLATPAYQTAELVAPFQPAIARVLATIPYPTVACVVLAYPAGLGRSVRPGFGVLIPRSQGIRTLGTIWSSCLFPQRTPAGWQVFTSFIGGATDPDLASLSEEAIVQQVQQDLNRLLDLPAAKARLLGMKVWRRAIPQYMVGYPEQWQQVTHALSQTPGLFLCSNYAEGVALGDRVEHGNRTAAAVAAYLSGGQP

Experiments:
[1] = target: Thermosynechococcus elongatus PKUAC-SCTE542 protoporphyrinogen IX oxidase CyPPO19 (SEQ ID NO: 1) variant V305M (MBP fusion) (Thermosynechococcus sichuanensis, UniProt A0A7D6JSC1, V305M); assay: PPO enzyme inhibition assay (IC50 for herbicides), CyPPO19 V305M fused to MBP; type: biochemical
[2] = target: Thermosynechococcus elongatus PKUAC-SCTE542 protoporphyrinogen IX oxidase CyPPO19 (SEQ ID NO: 1) variant A167C (MBP fusion) (Thermosynechococcus sichuanensis, UniProt A0A7D6JSC1, A167C); assay: biochemical
[3] = target: Thermosynechococcus elongatus PKUAC-SCTE542 protoporphyrinogen IX oxidase CyPPO19 (SEQ ID NO: 1) variant A167I (MBP fusion) (Thermosynechococcus sichuanensis, UniProt A0A7D6JSC1, A167I); assay: biochemical; details: 50 μM protoporphyrinogen IX, pH 7.5, room temperature, 30 min, 10,000 means equivalent to or higher
[4] = target: Thermosynechococcus elongatus PKUAC-SCTE542 protoporphyrinogen IX oxidase CyPPO19 (SEQ ID NO: 1) variant V165C (MBP fusion) (Thermosynechococcus sichuanensis, UniProt A0A7D6JSC1, V165C); assay: PPO enzyme inhibition assay (IC50 for herbicides), CyPPO19 V165C fused to MBP; type: biochemical
[5] = target: Thermosynechococcus elongatus PKUAC-SCTE542 protoporphyrinogen IX oxidase CyPPO19 (SEQ ID NO: 1) variant V305L (MBP fusion) (Thermosynechococcus sichuanensis, UniProt A0A7D6JSC1, V305L); assay: PPO enzyme inhibition assay (IC50 for herbicides), CyPPO19 V305L fused to MBP; type: biochemical
[6] = target: Thermosynechococcus elongatus PKUAC-SCTE542 protoporphyrinogen IX oxidase CyPPO19 (SEQ ID NO: 1) variant A167L (MBP fusion) (Thermosynechococcus sichuanensis, UniProt A0A7D6JSC1, A167L); assay: biochemical
[7] = target: T1, Thermosynechococcus elongatus PKUAC-SCTE542 protoporphyrinogen IX oxidase CyPPO19, wild type, SEQ ID NO: 1 (MBP fusion) (Thermosynechococcus sichuanensis, UniProt A0A7D6JSC1); assay: PPO enzyme inhibition assay (IC50 for herbicides), CyPPO19 wild type fused to MBP; type: biochemical
T1 sequence (A0A7D6JSC1 1-467): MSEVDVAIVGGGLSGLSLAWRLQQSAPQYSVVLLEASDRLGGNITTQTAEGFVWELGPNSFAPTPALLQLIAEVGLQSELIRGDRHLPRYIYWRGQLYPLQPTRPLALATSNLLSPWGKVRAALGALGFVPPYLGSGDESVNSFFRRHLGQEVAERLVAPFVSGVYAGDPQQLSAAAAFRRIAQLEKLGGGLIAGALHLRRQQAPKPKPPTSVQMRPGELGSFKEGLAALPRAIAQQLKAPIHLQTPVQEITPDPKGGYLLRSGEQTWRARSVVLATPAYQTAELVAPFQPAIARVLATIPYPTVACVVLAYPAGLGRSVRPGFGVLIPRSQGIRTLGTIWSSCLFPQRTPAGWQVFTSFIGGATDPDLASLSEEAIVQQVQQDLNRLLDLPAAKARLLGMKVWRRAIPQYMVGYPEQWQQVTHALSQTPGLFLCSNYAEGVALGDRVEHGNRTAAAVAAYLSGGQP

[8] = target: Thermosynechococcus elongatus PKUAC-SCTE542 protoporphyrinogen IX oxidase CyPPO19 (SEQ ID NO: 1) variant R89A (MBP fusion) (Thermosynechococcus sichuanensis, UniProt A0A7D6JSC1, R89A); assay: biochemical
[9] = target: Thermosynechococcus elongatus PKUAC-SCTE542 protoporphyrinogen IX oxidase CyPPO19 (SEQ ID NO: 1) variant V165S (MBP fusion) (Thermosynechococcus sichuanensis, UniProt A0A7D6JSC1, V165S); assay: biochemical; details: 50 μM protoporphyrinogen IX, pH 7.5, room temperature, 30 min, 10,000 means equivalent to or higher

Cc1nn(-c2cc(NS(C)(=O)=O)c(Cl)cc2Cl)c(=O)n1C(F)F [Sulfentrazone]
IC50 [1]: 693 nM | IC50 [2]: 2240 nM | IC50 [3]: 3520 nM | IC50 [4]: 2540 nM | IC50 [5]: 806 nM | IC50 [6]: ≥ 10000 nM | IC50 [7]: 516 nM | IC50 [8]: 1380 nM | IC50 [9]: 1210 nM
